Earlier results on 1 substance are cited in PMC3364022.

Chains of the proteins cited; added tags and fusions are not shown. Lines headed by an entry give the natural chain unless they say otherwise; changes in a name come on top.
UniProt Q07820, whole entry: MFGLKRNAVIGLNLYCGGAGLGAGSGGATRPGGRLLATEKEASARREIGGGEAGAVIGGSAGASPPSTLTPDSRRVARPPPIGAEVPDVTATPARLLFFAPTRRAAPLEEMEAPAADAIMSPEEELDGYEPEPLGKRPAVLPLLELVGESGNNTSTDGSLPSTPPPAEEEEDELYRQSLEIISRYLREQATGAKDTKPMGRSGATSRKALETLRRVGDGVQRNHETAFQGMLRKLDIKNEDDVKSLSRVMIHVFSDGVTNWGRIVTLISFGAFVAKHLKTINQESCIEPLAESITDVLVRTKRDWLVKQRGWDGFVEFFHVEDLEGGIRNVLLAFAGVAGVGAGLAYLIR
UniProt O43521: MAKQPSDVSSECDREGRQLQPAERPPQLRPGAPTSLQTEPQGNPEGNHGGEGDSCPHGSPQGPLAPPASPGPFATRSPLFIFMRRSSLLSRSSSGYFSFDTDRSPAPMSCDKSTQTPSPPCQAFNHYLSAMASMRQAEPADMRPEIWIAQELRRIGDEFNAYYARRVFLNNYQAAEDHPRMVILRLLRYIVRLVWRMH

The target in this series is Mcl-1 (Homo sapiens) (UniProt Q07820). Kind of series: FP.

As a reminder, the Kd is the constant that tells how readily two partners part at equilibrium. As for “Flu-Bim tracer BH3 (from UniProt O43521)”, the Kd was 1.4 nM.
